Measured values: article PMC8427951, “Design, synthesis, and preliminary evaluation of a potential synthetic opioid rescue agent” (Journal of Biomedical Science, 2021)
“And” between values parts separate entries of the source, which are not always exact repeats. Equal entries are not always repeated.

By UniProt entry, the sequences of proteins in these tests, tags left out.
UniProt P35372, whole entry, looked up: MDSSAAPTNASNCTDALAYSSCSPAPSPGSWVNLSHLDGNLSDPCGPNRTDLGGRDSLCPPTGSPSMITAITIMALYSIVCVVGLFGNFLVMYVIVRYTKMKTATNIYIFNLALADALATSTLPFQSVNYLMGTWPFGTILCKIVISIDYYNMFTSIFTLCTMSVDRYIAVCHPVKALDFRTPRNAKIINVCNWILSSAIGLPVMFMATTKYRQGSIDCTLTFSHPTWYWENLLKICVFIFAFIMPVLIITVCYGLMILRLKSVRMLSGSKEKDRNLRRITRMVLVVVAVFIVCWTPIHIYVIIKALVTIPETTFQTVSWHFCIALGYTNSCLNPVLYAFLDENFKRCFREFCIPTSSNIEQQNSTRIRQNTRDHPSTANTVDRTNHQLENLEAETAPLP

Assays:
[1] = target: T1, human μ opioid receptor (MOR) (Homo sapiens, UniProt P35372); assay: Forskolin-induced cAMP accumulation (HitHunter cAMP assay), MOR antagonism versus fentanyl; conditions: read-out: MOR antagonism IC50; versus EC90 of fentanyl; 15 min pretreatment; mean ± SEM, at least three measurements
[2] = target: T1, human μ opioid receptor (MOR); assay: Schild analysis of antagonism against fentanyl, cAMP functional assay; conditions: against fentanyl at MORs; for pA2 ± SEM: HillSlope and SchildSlope constrained to 1; for Schild slope ± SEM: three concentrations of antagonist; for Kd: read-out: Ke ± SEM (equilibrium dissociation constant), from EC50 shift at a single antagonist dose

Molecule	IC50 [1]	pA2 ± SEM [2]	Schild slope ± SEM [2]	Kd [2]
CO[C@H]1CC[C@@]2(O)[C@H]3Cc4ccc(O)c5c4[C@@]2(CCN3CC2CC2)[C@H]1O5 [Compound 25]	18.6 nM			
O=C1CC[C@@]2(OC[C@H](O)CO)[C@H]3Cc4ccc(O)c5c4[C@@]2(CCN3CC2CC2)[C@H]1O5 [Compound 22]	6.49 nM			
CO[C@@H]1CC[C@@]2(O)[C@H]3Cc4ccc(O)c5c4[C@@]2(CCN3CC2CC2)[C@H]1O5 [Compound 26]	4.52 nM			
CCC(=O)O[C@@]12CCC(=O)[C@@H]3Oc4c(O)ccc5c4[C@@]31CCN(CC1CC1)[C@@H]2C5 [Compound 14]	4.22 nM			
O=C(/C=C/c1ccc(Cl)cc1)N[C@@]12CCC(=O)[C@@H]3Oc4c(O)ccc5c4[C@@]31CCN(CC1CC1)[C@@H]2C5 [CCAM, clocinnamox, reference compound]	29.6 nM			
C=C1CC[C@@]2(OC[C@H](O)CO)[C@H]3Cc4ccc(O)c5c4[C@@]2(CCN3CC2CC2)[C@H]1O5 [Compound 30]	3.58 nM	9.77 and 9.77 ± 0.14	1.22 ± 0.14	0.159 nM
C=C1CC[C@@]2(OCCC)[C@H]3Cc4ccc(O)c5c4[C@@]2(CCN3CC2CC2)[C@H]1O5 [Compound 29]	2.06 nM	10.01 and 10.01 ± 0.18	1.04 ± 0.12	0.103 nM
β-funaltrexamine	31 nM			
O=C1CC[C@@]2(OCCCC3CCCCC3)[C@H]3Cc4ccc(O)c5c4[C@@]2(CCN3CC2CC2)[C@H]1O5 [Compound 16]	> 10000 nM			
C=CCOC12CCC(=C)C3Oc4c(O)ccc5c4C31CCN(CC1CC1)C2C5 (stereo not shown) [Compound 28]	2.03 nM			
